Experimental data from PubChem BioAssay (NCI).
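Step 1: Grow cells in 96-well plates. Step 2: Expose to compound for 48 hours at 5 concentrations. Step 3: Interpolate endpoints linearly; if unreached, use highest concentration. At the GI50, growth is halved. Definition used: TGI = concentration required for complete inhibition of growth.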

Legend:
Experiment in all cases: DTP human tumour cell line panel, 48 h
[1] = test system: OVCAR-3 ovarian
[2] = test system: UACC-257 melanoma
[3] = test system: HS 578T breast
[4] = test system: OVCAR-4 ovarian
[5] = test system: HL-60(TB) leukemia
[6] = test system: SK-MEL-5 melanoma
[7] = test system: SNB-75 CNS
[8] = test system: SW-620 colon
[9] = test system: RPMI-8226 leukemia
[10] = test system: 786-0 renal
[11] = test system: RXF 393 renal
[12] = test system: HOP-62 NSCLC
[13] = test system: EKVX NSCLC
[14] = test system: U251 CNS
[15] = test system: TK-10 renal
[16] = test system: A549 NSCLC
[17] = test system: MDA-N
[18] = test system: MDA-MB-435
[19] = test system: SF-268 CNS
[20] = test system: NCI-H460 lung
[21] = test system: CAKI-1 renal
[22] = test system: DU-145 prostate
[23] = test system: MALME-3M melanoma
[24] = test system: SNB-19 CNS
[25] = test system: LOX IMVI melanoma
[26] = test system: SK-MEL-2 melanoma
[27] = test system: MDA-MB-231 breast
[28] = test system: KM12 colon
[29] = test system: NCI/ADR-RES ovarian
[30] = test system: T-47D breast
[31] = test system: NCI-H522 lung
[32] = test system: BT-549 breast
[33] = test system: OVCAR-5 ovarian
[34] = test system: UO-31 renal
[35] = test system: HOP-92 NSCLC
[36] = test system: NCI-H322M lung
[37] = test system: M14 melanoma
[38] = test system: SK-MEL-28 melanoma
[39] = test system: PC-3 prostate
[40] = test system: IGROV1 ovarian
[41] = test system: SF-539 CNS
[42] = test system: SK-OV-3 ovarian
[43] = test system: SR leukemia
[44] = test system: MCF7 breast
[45] = test system: HCT-116 colon
[46] = test system: ACHN renal
[47] = test system: HT29 colon
[48] = test system: NCI-H226 lung
[49] = test system: SF-295 CNS
[50] = test system: MOLT-4 leukemia
[51] = test system: COLO 205 colon
[52] = test system: UACC-62 melanoma
[53] = test system: CCRF-CEM leukemia
[54] = test system: HCC-2998 colon
[55] = test system: K-562 leukemia
[56] = test system: SN12C renal
[57] = test system: HCT-15 colon
[58] = test system: OVCAR-8 ovarian
[59] = test system: NCI-H23 lung
[60] = test system: A498 renal

O=[N+]([O-])c1cc([N+](=O)[O-])c(-c2nc(Cl)c3c([N+](=O)[O-])cc([N+](=O)[O-])cc3[n+]2[O-])c([N+](=O)[O-])c1
GI50 [1]: 1.8 µM | TGI [1]: 3.27 µM | GI50 [2]: 2.2 µM | TGI [2]: 4.59 µM | GI50 [3]: 3.6 µM | TGI [3]: 17.5 µM | GI50 [4]: 1.9 µM | TGI [4]: 3.36 µM | GI50 [5]: 0.299 µM | TGI [5]: 0.914 µM | GI50 [6]: 2.91 µM | TGI [6]: 6.58 µM | GI50 [7]: 3.01 µM | TGI [7]: 10.7 µM | GI50 [8]: 2.1 µM | TGI [8]: 4.07 µM | GI50 [9]: 0.528 µM | TGI [9]: 16.6 µM | GI50 [10]: 1.69 µM | TGI [10]: 3.11 µM | GI50 [11]: 1.74 µM | TGI [11]: 3.7 µM | GI50 [12]: 7.45 µM | TGI [12]: 15.7 µM | GI50 [13]: 4.66 µM | TGI [13]: 9.07 µM | GI50 [14]: 1.8 µM | TGI [14]: 3.35 µM | GI50 [15]: 2.09 µM | TGI [15]: 4.23 µM | GI50 [16]: 11.6 µM | TGI [16]: 26.2 µM | GI50 [17]: 1.95 µM | TGI [17]: 3.48 µM | GI50 [18]: 1.67 µM | TGI [18]: 3.16 µM | GI50 [19]: 1.6 µM | TGI [19]: 3.2 µM | GI50 [20]: 5.96 µM | TGI [20]: 12.8 µM | GI50 [21]: 1.83 µM | TGI [21]: 3.23 µM | GI50 [22]: 6.14 µM | TGI [22]: 16.9 µM | GI50 [23]: 1.9 µM | TGI [23]: 3.54 µM | GI50 [24]: 4.36 µM | TGI [24]: 8.8 µM | GI50 [25]: 1.58 µM | TGI [25]: 3.1 µM | GI50 [26]: 16.3 µM | TGI [26]: 22.9 µM | GI50 [27]: 1.91 µM | TGI [27]: 3.58 µM | GI50 [28]: 6.79 µM | TGI [28]: 18.3 µM | GI50 [29]: 1.31 µM | TGI [29]: 3.74 µM | GI50 [30]: 14.7 µM | TGI [30]: 23.6 µM | GI50 [31]: 1.88 µM | TGI [31]: 3.78 µM | GI50 [32]: 1.92 µM | TGI [32]: 3.45 µM | GI50 [33]: 2.45 µM | TGI [33]: 5.09 µM | GI50 [34]: 2.11 µM | TGI [34]: 4.55 µM | GI50 [35]: 1.78 µM | TGI [35]: 3.22 µM | GI50 [36]: 6.87 µM | TGI [36]: 19.5 µM | GI50 [37]: 1.95 µM | TGI [37]: 3.63 µM | GI50 [38]: 1.81 µM | TGI [38]: 3.4 µM | GI50 [39]: 1.76 µM | TGI [39]: 3.2 µM | GI50 [40]: 2.5 µM | TGI [40]: 5.43 µM | GI50 [41]: 3.91 µM | TGI [41]: 9.4 µM | GI50 [42]: > 100 µM | TGI [42]: > 100 µM | GI50 [43]: 0.361 µM | TGI [43]: > 100 µM | GI50 [44]: 1.04 µM | TGI [44]: 3.58 µM | GI50 [45]: 1.74 µM | TGI [45]: 3.21 µM | GI50 [46]: 1.67 µM | TGI [46]: 3.04 µM | GI50 [47]: 1.99 µM | TGI [47]: 3.95 µM | GI50 [48]: 13 µM | TGI [48]: 39.2 µM | GI50 [49]: 7.78 µM | TGI [49]: 19.6 µM | GI50 [50]: 0.522 µM | TGI [50]: 1.42 µM | GI50 [51]: 1.75 µM | TGI [51]: 3.23 µM | GI50 [52]: 16.4 µM | TGI [52]: 28.6 µM | GI50 [53]: 0.497 µM | TGI [53]: 1.28 µM | GI50 [54]: 15.1 µM | TGI [54]: 24 µM | GI50 [55]: 0.682 µM | TGI [55]: 1.78 µM | GI50 [56]: 2.44 µM | TGI [56]: 5.85 µM | GI50 [57]: 10.7 µM | TGI [57]: 18.6 µM | GI50 [58]: 1.8 µM | TGI [58]: 3.33 µM | GI50 [59]: 2.84 µM | TGI [59]: 6.86 µM | GI50 [60]: 13 µM | TGI [60]: 27.8 µM

Cc1c([N+](=O)[O-])cc([N+](=O)[O-])c(Br)c1[N+](=O)[O-]
GI50 [1]: 1.71 µM | TGI [1]: 3.08 µM | GI50 [2]: 1.67 µM | TGI [2]: 3.12 µM | GI50 [3]: 7.21 µM | TGI [3]: 40.5 µM | GI50 [4]: 1.79 µM | TGI [4]: 3.19 µM | GI50 [5]: 2.68 µM | TGI [5]: 5.4 µM | GI50 [6]: 14.3 µM | TGI [6]: 27.6 µM | GI50 [7]: 2.65 µM | TGI [7]: 9.43 µM | GI50 [8]: 1.8 µM | TGI [8]: 3.57 µM | GI50 [9]: 2.06 µM | TGI [9]: 6.59 µM | GI50 [10]: 1.8 µM | TGI [10]: 3.33 µM | GI50 [11]: 1.79 µM | TGI [11]: 3.19 µM | GI50 [12]: 13.3 µM | TGI [12]: 26.1 µM | GI50 [13]: 14.9 µM | TGI [13]: 31.1 µM | GI50 [14]: 4.38 µM | TGI [14]: 18.8 µM | GI50 [15]: 10.8 µM | TGI [15]: 23 µM | GI50 [16]: 18.6 µM | TGI [16]: 41.5 µM | GI50 [18]: 2.9 µM | TGI [18]: 11.9 µM | GI50 [19]: 14 µM | TGI [19]: 27.1 µM | GI50 [20]: 19.4 µM | TGI [20]: 52.7 µM | GI50 [21]: 1.72 µM | TGI [21]: 3.43 µM | GI50 [22]: 10.6 µM | TGI [22]: 22.6 µM | GI50 [23]: 1.74 µM | TGI [23]: 3.6 µM | GI50 [24]: 16.9 µM | TGI [24]: 33.7 µM | GI50 [26]: 11.9 µM | TGI [26]: 24.7 µM | GI50 [27]: 11.4 µM | TGI [27]: 26.9 µM | GI50 [28]: 11.8 µM | TGI [28]: 24.4 µM | GI50 [29]: 2.91 µM | TGI [29]: 8.82 µM | GI50 [30]: 1.74 µM | TGI [30]: 4.59 µM | GI50 [31]: 1.52 µM | TGI [31]: 2.86 µM | GI50 [32]: 16.2 µM | TGI [32]: 30.1 µM | GI50 [33]: 5.14 µM | TGI [33]: 24 µM | GI50 [34]: 1.46 µM | TGI [34]: 3.06 µM | GI50 [35]: 1.66 µM | TGI [35]: 3.13 µM | GI50 [36]: 16.2 µM | TGI [36]: 33.7 µM | GI50 [38]: 12.3 µM | TGI [38]: 25.5 µM | GI50 [39]: 1.85 µM | TGI [39]: 3.68 µM | GI50 [40]: 1.78 µM | TGI [40]: 4.22 µM | GI50 [42]: 15.2 µM | TGI [42]: 28.5 µM | GI50 [43]: 2.44 µM | TGI [43]: 7.39 µM | GI50 [46]: 1.85 µM | TGI [46]: 3.46 µM | GI50 [47]: 1.81 µM | TGI [47]: 3.56 µM | GI50 [48]: 13.4 µM | TGI [48]: 27.8 µM | GI50 [49]: 15.5 µM | TGI [49]: 31.1 µM | GI50 [50]: 2.84 µM | TGI [50]: 7.6 µM | GI50 [51]: 1.6 µM | TGI [51]: 3.1 µM | GI50 [52]: 1.79 µM | TGI [52]: 3.61 µM | GI50 [54]: 17.6 µM | TGI [54]: 33.2 µM | GI50 [55]: 1.76 µM | TGI [55]: 7.81 µM | GI50 [56]: 12.3 µM | TGI [56]: 41.5 µM | GI50 [57]: 1.58 µM | TGI [57]: 4.25 µM | GI50 [58]: 3.06 µM | TGI [58]: 10.8 µM | GI50 [59]: 19 µM | TGI [59]: 48.3 µM | GI50 [60]: 14.2 µM | TGI [60]: 27.3 µM
